Test results reported in ChEMBL document CHEMBL5154659, “A3 adenosine receptor agonists containing dopamine moieties for enhanced interspecies affinity” (Eur J Med Chem, 2022).

Sequences of proteins named here, by UniProt entry; tags and fusion partners are left off.
UniProt P30542, whole entry: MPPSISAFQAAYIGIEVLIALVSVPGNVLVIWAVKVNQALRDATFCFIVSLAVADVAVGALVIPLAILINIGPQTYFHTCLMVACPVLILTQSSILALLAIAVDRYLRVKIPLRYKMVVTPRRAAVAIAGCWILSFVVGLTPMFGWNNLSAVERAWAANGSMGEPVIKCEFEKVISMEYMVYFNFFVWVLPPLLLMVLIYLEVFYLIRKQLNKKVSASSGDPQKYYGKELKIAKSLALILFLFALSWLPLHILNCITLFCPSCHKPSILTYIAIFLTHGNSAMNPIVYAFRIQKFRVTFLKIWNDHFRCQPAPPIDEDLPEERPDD

Tests used:
Adenosine receptor A1 = Adenosine receptor A1 (Homo sapiens, UniProt P30542); assay: Binding affinity to human adenosine A1A receptor expressed in human HEK293 cell membrane at 10 uM by radioligand inhibition assay; type: cell membranes
Adenosine receptor A2a = Adenosine receptor A2a (Homo sapiens, UniProt P29274); assay: Binding affinity to human adenosine A2A receptor expressed in human HEK293 cell membrane at 10 uM by radioligand inhibition assay; type: cell membranes

inhibition (Adenosine receptor A1)	inhibition (Adenosine receptor A2a)	Structure (SMILES)
15%	30%	CNC(=O)[C@@]12C[C@@H]1[C@@H](n1cnc3c(NCCc4ccc(OC)c(O)c4)nc(OCCCC4CCCCC4)nc31)[C@H](O)[C@@H]2O
16%	–	CNC(=O)[C@@]12C[C@@H]1[C@@H](n1cnc3c(NCCc4ccc(OC)c(O)c4)nc(OCCC(C)C)nc31)[C@H](O)[C@@H]2O
31%	–	CNC(=O)[C@@]12C[C@@H]1[C@@H](n1cnc3c(NCCc4ccc(OC)c(O)c4)nc(OCC4CC4)nc31)[C@H](O)[C@@H]2O

Further lines, the compound ahead of its results:

Structure (SMILES)	inhibition (Adenosine receptor A1)	inhibition (Adenosine receptor A2a)
CNC(=O)[C@@]12C[C@@H]1[C@@H](n1cnc3c(NCCc4ccc(OC)c(O)c4)nc(OCC(C)C)nc31)[C@H](O)[C@@H]2O	25%	–
CNC(=O)[C@@]12C[C@@H]1[C@@H](n1cnc3c(NCCc4ccc(OC)c(OC)c4)nc(I)nc31)[C@H](O)[C@@H]2O	45%	29%
